AlphaSeq binding of Ab-14 heavy chain variants to a spike HR2 peptide

From the AlphaSeq antibody data of Engelhart et al. 2022 (doi:10.1038/s41597-022-01779-4), copy in the FLAb collection.

Binding partner: SARS-CoV-2 spike HR2 peptide, sequence PDVDLGDISGINAS.

Parent: Ab-14, a human scFv built as VH, a 15-residue (Gly4Ser)3 linker, VL. Only the CDRs of the heavy chain vary.
VH: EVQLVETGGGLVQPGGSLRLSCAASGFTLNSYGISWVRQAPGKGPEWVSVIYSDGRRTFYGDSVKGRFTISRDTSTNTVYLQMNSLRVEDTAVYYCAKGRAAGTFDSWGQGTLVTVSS
VL: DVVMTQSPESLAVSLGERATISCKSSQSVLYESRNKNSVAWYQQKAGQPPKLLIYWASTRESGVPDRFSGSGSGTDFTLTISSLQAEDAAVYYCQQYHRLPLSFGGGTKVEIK

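Phage display of a naive human antibody library on the peptide gave the parent. Variants in AAYL49 differ from the parent at up to three CDR positions; double and triple changes were sampled at random. The scFvs were displayed on barcoded MATa yeast, the peptide on MATalpha yeast. After mating in shaken culture at 30 °C for 16 h, diploids were selected and their barcode pairs sequenced. The ratio of observed to expected reads was calibrated, replicate by replicate, on BCL2-family standards whose Kd was known from biolayer interferometry. The assay was run in three technical replicates.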

Variants are written as CDR1, CDR2 and CDR3 of the heavy chain (limits as in the source). Parent: GFTLNSYGIS, VIYSDGRRTFYGDSVK, GRAAGTFDS. Affinities are written as log10 Kd with Kd in nM; a lower number is a better binder. Replicates are averaged; those with no signal do not enter the mean. "nd" marks a missing value. The strain was present, yet no cells mated with the target were sequenced in any replicate, which points to weak or no binding. Background: pairings of library AAYL49 with three empty control strains gave a value in 15% of cases (median 4.06, 5th percentile 2.83). Values in that range, when seen in few replicates, are hard to tell from nonspecific mating. Parent in this assay: reference entry 0.65, copy in this library 4.11 (one replicate of three).

CDR-H1,CDR-H2,CDR-H3,"log10 Kd (nM), mean",detected
GFTLNSYGIS,VIWSDGRRTFYGHSKK,GRAAGTFDS,4.21,1/3
GFTFNRYGIS,VIYSDGRRTFYGDSVH,GRAAGTFDS,nd,0/3
GFTLNSYGIS,VIDSDGRRTHYGDKVK,GRAAGTFDS,4.17,2/3
GFTLNSYGIS,VCYSDGRRTFYGDSVK,GRAAGCFDS,nd,0/3
GFTLNSYGIS,VIYSAGRVTFYGDRVK,GRAAGTFDS,2.77,1/3
GFTLNSYGIS,VIYSDGWRTFYGTSVK,GRAMGTFDS,nd,0/3
GFYLNSYGIS,VIYSDGRRTFYGDSVK,GQAAGTFDS,1.26,3/3
GKTLNSYGIY,VIYSDGRRTFYGDLVK,GRAAGTFDS,nd,0/3
GFTLNSYGIS,VIYSDGRRTFYGDSVK,GDAIGTFIS,5.04,2/3
VFTLNSYGIS,VIYSDGRRTFYGDSVF,GRAAGTFDY,4.37,1/3
GYTLCSCGIS,VIYSDGRRTFYGDSVK,GRAAGTFDS,nd,0/3
GFTLNSYGIS,LIYSDGRRTFYGCSDK,GRAAGTFDS,3.92,2/3
GFRLNSYVIS,VIMSDGRRTFYGDSVK,GRAAGTFDS,5.05,2/3
GFQLNSYGIS,VIYSDGRRTFYGDSVY,GRAAMTFDS,3.32,3/3
GFTLNSYGIS,VIYIDGDRTFYGDSVK,GRAAGTFDS,4.22,1/3
GFTLNSYGIS,VIYSDGRRTTYGDSVK,GCAAGTQDS,nd,0/3
GFTLNSYGIS,KHYSDCRRTFYGDSVK,GRAAGTFDS,nd,0/3
GFTLNSYGIS,VIRSDGRRTFYGDSCC,GRAAGTFDS,nd,0/3
GFTLNSFCIS,VIYSDGRRTFYGDSVK,GRAAGTFDN,4.29,1/3
GFTFNSYGIS,VIYSHGRRTFYGDSVK,GRAAGTFDS,4.95,1/3
GFTLNSYGGS,VWYSDGRRTFYGKSVK,GRAAGTFDS,3.88,1/3
GFTLNSYGIS,VIYSDGRITFYGDWVK,TRAAGTFDS,nd,0/3
GFTLNSYGIR,VIYSDGRRTFYGDMVK,GRSAGTFDS,nd,0/3
GFTLNSYCIS,VIYSDGRRTWYGDSVK,GRASGTFDS,nd,0/3
GFTLNWYGIS,VIYSDGRRTFYGDSVK,GDAAATFDS,2.44,1/3
GFTLNRYGIS,VIYSDGRRTFYGDSVK,GRAVHTFDS,nd,0/3
GQTLNSYGIS,VIYSDGRRTFYGDSVK,PRAAGTFDK,nd,0/3
GRTLNSYGIS,DIYEDGRRTFYGDSVK,GRAAGTFDS,5.60,1/3
GFTLNSYGIS,VIYSDGRRTFYGDSVK,GRWEGTFDC,3.56,1/3
GFTLNIYGIS,VIYSDGRRTFYGDSVK,GRAAPTFDE,5.26,1/3
GFTSSSYGIS,VIYSDGRRTFYGDSVK,TRAAGTFDS,4.59,1/3
GFTLNSYGIS,VIYSDGRRTFYSDSVS,GRAHGTFDS,3.69,1/3
GFTLNYYGIS,VIYEDGRRNFYGDSVK,GRAAGTFDS,4.86,1/3
GFTLNSYGIS,HIYSDGRRTFYGDSVK,GRFAGTMDS,nd,0/3
GFTLNSYLIW,VIYSDGRRTFYGDSVK,GRAAGDFDS,5.16,2/3
GFTLNHYGNS,VIYSDGRRTSYGDSVK,GRAAGTFDS,nd,0/3
FFTLNSYGIS,VIISDGRRTFYGDSVK,GRAAGTFDS,4.07,1/3
GFTLNSYGIS,VIRSDPRRTFYGDYVK,GRAAGTFDS,3.97,2/3
GFTWNSHGIS,VIYSDGRRTGYGDSVK,GRAAGTFDS,nd,0/3
GFTLNSYGIS,VIYSDGRRTFYGDSVK,GRFAKCFDS,nd,0/3
GFTLNSYGIS,VIYNDGRRPFYGDSVK,GRTAGTFDS,nd,0/3
GFTLNSSGIS,VIYSDGRATFYGDSLK,GRAAGTFDS,nd,0/3
GFTLNSYGIS,VIYFDGRRTFQGYSVK,GRAAGTFDS,nd,0/3
GWTLNSYGIS,VIYMDGRRTFYGDSVK,GRAAGTGDS,nd,0/3
GFTLNSYGIS,VIYSTGRRTFYGDSVK,MMAAGTFDS,5.02,3/3
GFTLNSYGIS,VIYSDGPRTFYGDSVK,SRAAGTFPS,nd,0/3
GFTLNSIGIS,VIYSDGQRTFFGDSVK,GRAAGTFDS,nd,0/3
GFTLISYHIS,QIYSDGRRTFYGDSVK,GRAAGTFDS,nd,0/3
GFTLNSYGIS,VIYSDGRRTFYGDSPK,GRAGRTFDS,nd,0/3
GFTLNSYGIS,VIYSDGRRTFYGDSVK,GRNAGQLDS,5.20,2/3
GFTPNSYGIS,VIYSEGRRTFYGDSVK,GRYAGTFDS,nd,0/3
GFTLNSYGIS,VIYSDGRRTFYGDSRK,GRTAGTFDS,nd,0/3
GFTLNSYGIS,VIYSRGRRTFYGDSVK,GRAAPTSDS,nd,0/3
AFTLWSYGIS,VIYSDGRRCFYGDSVK,GRAAGTFDS,3.27,1/3
GFTLNSFGIS,VIYSDGRYTFYGQSVK,GRAAGTFDS,5.34,1/3
GFTLNSGGIS,VIYSDGRRCFYGDSVK,GRAVGTFDS,nd,0/3
GFTLNSYGIS,NIYSDGRRTFYGDSHK,FRAAGTFDS,nd,0/3
GLTLNSYGIS,VIYSDTRRHFYGDSVK,GRAAGTFDS,4.66,2/3
TFTLNSYGIS,VIYSDGRSTFYGDSVK,GMAAGTFDS,3.76,1/3
GFTLNYYGIS,VIYSDWRRTFYGDSVW,GRAAGTFDS,4.08,2/3
GFTLNSYGIS,VIYSDGRNTFYGDSAK,GSAAGTFDS,nd,0/3
GFTLNSYGIS,VIYSDGRRTFYGDSVK,GSAAGSFDQ,3.41,2/3
GFTLNSYGIS,VIYSDGRRTFYGTMVK,GRAAGNFDS,nd,0/3
PFTLNSYGDS,VIYSDGRRTFYGDSVK,GRACGTFDS,nd,0/3
GFTLKSSGIS,VIYSDKRRTFYGDSVK,GRAAGTFDS,4.85,2/3
GFCLNSYGDS,VIYSDGRHTFYGDSVK,GRAAGTFDS,nd,0/3
GFTLESYGIS,VIYSDGRRTFYGDSVK,GRASGTFDS,3.77,3/3
GFTLNSYGIS,VIYSDGRRSMYGDSVK,GYAAGTFDS,2.17,3/3
GFTLNSYGCS,VIYSDGRGTFYGDSVK,GRAAGTFDY,2.93,1/3
GYTLNSYGIS,VIYSDGRRFFYGDSVK,GRAAGTWDS,nd,0/3
GFTLNRYGIS,VIASDGRRTFYGDSVK,GRNAGTFDS,nd,0/3
GFTLNSYGIV,VIYSDGRRTFYGDSVK,GRAAGTFDH,nd,0/3
GFTLNKYGIS,VIYSDGRRTFYGDYVK,PRAAGTFDS,nd,0/3

Excerpt, the first 11 entries:

CDR-H1,CDR-H2,CDR-H3,"log10 Kd (nM), mean",detected
GFTLNSYGIS,VIWSDGRRTFYGHSKK,GRAAGTFDS,4.21,1/3
GFTFNRYGIS,VIYSDGRRTFYGDSVH,GRAAGTFDS,nd,0/3
GFTLNSYGIS,VIDSDGRRTHYGDKVK,GRAAGTFDS,4.17,2/3
GFTLNSYGIS,VCYSDGRRTFYGDSVK,GRAAGCFDS,nd,0/3
GFTLNSYGIS,VIYSAGRVTFYGDRVK,GRAAGTFDS,2.77,1/3
GFTLNSYGIS,VIYSDGWRTFYGTSVK,GRAMGTFDS,nd,0/3
GFYLNSYGIS,VIYSDGRRTFYGDSVK,GQAAGTFDS,1.26,3/3
GKTLNSYGIY,VIYSDGRRTFYGDLVK,GRAAGTFDS,nd,0/3
GFTLNSYGIS,VIYSDGRRTFYGDSVK,GDAIGTFIS,5.04,2/3
VFTLNSYGIS,VIYSDGRRTFYGDSVF,GRAAGTFDY,4.37,1/3
GYTLCSCGIS,VIYSDGRRTFYGDSVK,GRAAGTFDS,nd,0/3